Data published in US12104178B2, “DHFR tunable protein regulation” (Obsidian Therapeutics, Inc., priority 2017, dated 2024).

Key:
T cells = test: IL12/IL2 effect on T cell expansion and IFNgamma positive CD4+/CD8+ T cells; assay type: cell-based, human; details: 14 days, CD3/CD28 stimulation
Description: The goal of the study was to determine the T cell stimulation regimen and dose of IL12 needed to maximize T cell persistence and T cell differentiation in vitro, to mimic an in vivo adoptive cell transfer therapy regimen. The study recapitulates the design of the adoptive cell therapy regimen wherein the T cells were initially exposed to the antigen in vitro which results in activation followed by a resting phase and finally in vivo transfer where the T cells encounter the antigen again. T cells were stimulated CD3/CD28 beads or soluble CD3/CD28 on day 0 and the CD3/CD28 stimulus was washed off at the end of 48 hours. Cells were treated with a dose of IL12 ranging from 0.01-1000 ng/mL. On day 9, the Th1 phenotype of the cells was evaluated by examining the frequency of IFNgamma positive CD4+ cells and CD8+ cells. […] On day 16, the Th1 phenotype was evaluated in both groups using FACS. […]
The effect of IL12 on T cell activation was measured by determining the frequency of IFNgamma positive CD4+ and CD8+ T cells. […] At day 9, cells were restimulated with soluble CD3/CD28 and the frequency of IFNgamma positive cells was determined by FACS. […] At day 16, the frequency of IFNgamma positive cells was measured. […] IFNgamma positive CD4 and CD8 cells were measured using FACS. […]

NK-92 cells [1] = test: NK-92 activation markers with IL2 (Table 85); assay type: cell-based
Method: The dependency of the NK-92 cells on cytokines for activation was tested. Cells were initially cultured for 3 days with IL2, following which cells were washed twice and cultured in media without IL2 for 7 hours. The cells were cultured for 18 hours in the presence of IL2 (100 μg/ml). NK-92 cell activation in response to cytokine treatment was evaluated by FACS analysis of a panel of markers whose increased expression is associated with NK activation. These include NKG2D, CD71, CD69; chemokine receptors such as CCR5, CXCR4, and CXCR3, Perform, Granzyme B and Interferon gamma (IFNg). Prior to FACS for IFNg, cells were cultured for 4 hours with Brefeldin A. IFNg levels were also measured in the media. NK cells respond to external stimuli such as cytokines in their environment through the phosphorylation of proteins JAK/STAT, ERK, and p38/MAPK pathways which are important for cell activation, signalling and differentiation pathways. The phosphorylation of AKT, STAT3 and STAT5 in response to cytokine addition was measured by FACS. Since phosphorylation events are transient NK-92 cells were treated with the cytokines for 15 or 60 minutes, prior to the analysis. The fold change in mean fluorescence intensities compared to untreated for IL2 treatment for select markers are presented in Table 85.

NK-92 cells [2] = test: Cytokine dependent proliferation of NK-92, Jurkat and SupT1 cells; assay type: cell-based; details: 3 days
Method: The dependency of immune cells on cytokines for proliferation was tested in NK-92 cells and T cell lines Jurkat cells and SupT1 cells. Cells were seeded at 40,000 per well and cultured in the presence of IL2 or IL15 for 3 days. […] Thus, NK-92 cells depend on cytokines for survival.
The dependency of immune cells on cytokines for proliferation was tested in NK-92 cells (natural killer cell line) and T cell lines Jurkat cells and SupT1 cells. Cells were seeded at 40,000 per well and cultured in the presence of IL2 or IL15 for 3 days. The number of NK-92 cells decreased with time in the untreated cells. […] Thus, NK-92 cells depend on cytokines for survival.

IL2: cytokine added to NK-92 cells and T cells
Requirement for T cell expansion (FIG. 37A) (T cells): required for T cell expansion | Fold change in MFI vs untreated, CD69 (NK-92 cells [1]; IL2 100 μg/ml, 18 h): 1.60 | Fold change in MFI vs untreated, CXCR4 (NK-92 cells [1]; IL2 100 μg/ml, 18 h): 3.56 | Fold change in MFI vs untreated, Granzyme (NK-92 cells [1]; IL2 100 μg/ml, 18 h): 1.62 | Fold change in MFI vs untreated, IFNg (cellular) (NK-92 cells [1]; IL2 100 μg/ml, 18 h): 1.15 | Fold change in MFI vs untreated, Perforin (NK-92 cells [1]; IL2 100 μg/ml, 18 h): 1.72 | Fold change vs untreated, IFNg (Supernatant) (NK-92 cells [1]; IL2 100 μg/ml, 18 h): 7.43 | Fold change in MFI vs untreated, pAKT (NK-92 cells [1]; IL2, 15 mins): 1.23 | Fold change in MFI vs untreated, pSTAT3 (NK-92 cells [1]; IL2, 15 mins): 1.19 | Fold change in MFI vs untreated, pSTAT5 (NK-92 cells [1]; IL2, 15 mins): 1.90 | Fold change in MFI vs untreated, pAKT (NK-92 cells [1]; IL2, 60 mins): 1.34 | Fold change in MFI vs untreated, pSTAT3 (NK-92 cells [1]; IL2, 60 mins): 1.38 | NK-92 cell numbers (NK-92 cells [2]): increased cell numbers
